The entries are a selection whose mix differs from that of the whole data set. Some tests of the compounds listed are not included; inactive here does not mean inactive elsewhere. Calls of active or inactive are those of the source. Cut-off read from the data, not from the text of the source: active = inhibition above about 12%; inconclusive = no clear call, values can overlap the other calls; inactive = below about 7.3%.

Amino acid sequences for entries named in this document (tags omitted).
UniProt Q14145, whole entry: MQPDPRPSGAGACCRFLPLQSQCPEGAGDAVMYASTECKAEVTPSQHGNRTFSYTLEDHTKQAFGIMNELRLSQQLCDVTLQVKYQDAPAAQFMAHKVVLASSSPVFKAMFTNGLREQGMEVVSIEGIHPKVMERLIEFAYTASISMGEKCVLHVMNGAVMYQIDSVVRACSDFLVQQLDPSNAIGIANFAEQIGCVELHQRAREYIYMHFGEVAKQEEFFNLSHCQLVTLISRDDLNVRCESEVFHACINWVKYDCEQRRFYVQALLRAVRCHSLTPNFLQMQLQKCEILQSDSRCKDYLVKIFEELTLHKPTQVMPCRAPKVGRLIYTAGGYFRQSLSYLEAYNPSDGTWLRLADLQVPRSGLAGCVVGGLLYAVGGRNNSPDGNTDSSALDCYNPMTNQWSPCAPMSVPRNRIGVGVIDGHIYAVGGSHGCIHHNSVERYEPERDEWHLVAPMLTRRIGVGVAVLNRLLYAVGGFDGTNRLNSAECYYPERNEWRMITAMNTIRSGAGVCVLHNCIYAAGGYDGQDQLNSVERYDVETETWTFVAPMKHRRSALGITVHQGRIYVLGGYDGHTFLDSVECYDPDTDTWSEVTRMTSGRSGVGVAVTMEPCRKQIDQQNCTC
UniProt Q16236, whole entry partner: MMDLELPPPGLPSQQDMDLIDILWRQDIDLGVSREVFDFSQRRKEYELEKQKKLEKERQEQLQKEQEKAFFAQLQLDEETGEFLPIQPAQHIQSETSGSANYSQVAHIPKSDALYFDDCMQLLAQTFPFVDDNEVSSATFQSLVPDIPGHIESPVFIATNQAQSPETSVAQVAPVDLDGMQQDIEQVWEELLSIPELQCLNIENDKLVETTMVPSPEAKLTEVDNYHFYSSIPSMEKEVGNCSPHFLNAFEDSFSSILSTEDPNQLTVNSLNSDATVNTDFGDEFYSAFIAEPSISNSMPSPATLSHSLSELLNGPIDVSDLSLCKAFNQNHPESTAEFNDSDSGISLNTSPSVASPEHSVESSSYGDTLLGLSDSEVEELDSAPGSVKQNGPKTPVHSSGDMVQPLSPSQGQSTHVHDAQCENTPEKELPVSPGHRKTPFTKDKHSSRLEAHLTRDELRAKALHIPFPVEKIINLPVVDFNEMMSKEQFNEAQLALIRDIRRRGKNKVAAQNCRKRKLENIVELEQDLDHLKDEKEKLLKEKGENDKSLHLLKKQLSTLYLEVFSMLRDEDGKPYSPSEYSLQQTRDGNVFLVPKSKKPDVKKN

The target of this test is Kelch-like ECH-associated protein 1 (Homo sapiens) (UniProt Q14145). Kind of test: disruptors of Keap1 binding to Nrf2 – biochemical, fluorescence polarization, single point, primary screen (AID 504523).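 Note: human Keap1 Kelch domain with fluorescein labeled Nrf2 9mer peptide probe; 0% = neutral control wells and 100% = peptide positive control.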 Conditions: Keap1 Kelch-Nrf2 peptide fluorescence polarization, 1536-well; at 9.4 µM; active compounds read high. Background: In fluorescence polarisation assays a small probe gives low polarisation when free and higher when bound to something large.
As usually defined, the inhibition is the relative decrease from the control value, in per cent. For the compound `CN(C)C1(CNC(=O)c2ccc(Br)cc2)CCCCC1`, the inhibition was inactive: 2.12%.

For `COc1cc(C(=O)NCC2(N(C)C)CCCCC2)c([N+](=O)[O-])cc1OC`, the inhibition was inactive: 4.16%.

As for `COc1ccc(Cl)cc1C(=O)NCC1(N(C)C)CCCCC1`, the inhibition is inactive: -5.74%.

Consider `COc1cccc(C(=O)NCC2(N3CCCCC3)CCCCC2)c1`, for which the inhibition was inactive: 2.16%.

Turning to `O=C(NCC1(N2CCCCC2)CCCCC1)c1cccc(Cl)c1`, the inhibition is inactive: -2.26%.

As to `O=C(OC1CN2CCC1CC2)C(CO)(c1ccccc1)c1ccccc1` (stereo not given), the inhibition was inactive: -1.33%.

Take `COc1ccc(Br)c(C(=O)NCC2(N3CCCCC3)CCCCC2)c1`: the inhibition is inactive: -5.3%.

As for `O=C(OCCN1CCCC1)C(O)(c1ccccc1)c1ccccc1`, the inhibition was inactive: -1.35%.

For the compound `CC(C)Oc1ccc(C(=O)NCC2(N(C)C)CCCCC2)cc1`, the inhibition is inactive: 1.72%.

Turning to `CN(C)c1cccc(C(=O)NCC2(N(C)C)CCCCC2)c1`, the inhibition was inactive: 2.29%.

`O=C(NCC1(N2CCCCC2)CCCCC1)c1cc([N+](=O)[O-])ccc1Cl`: the inhibition was inactive: -5.55%.

Regarding `CN1[C@@H]2CC[C@H]1CC(OC(=O)C(O)(c1ccccc1)c1ccccc1)C2` (stereo not given in full), the inhibition is inactive: -0.454%.

As for `COc1cc(SC)ccc1C(=O)NCC1(N(C)C)CCCCC1`, the inhibition was inactive: 0.595%.

`CCN(CC)CC(C)C(C)OC(=O)C(O)(c1ccccc1)c1ccccc1` (stereo not given): the inhibition is inactive: -1.24%.

In the case of `CC(C)N1C(=O)CC2(CCN(CCOC(=O)C(O)(c3ccccc3)c3ccccc3)CC2)C1=O`, the inhibition is inactive: 2.85%.

Turning to `Cc1ccc(C(=O)NCC2(N3CCCCC3)CCCCC2)cc1`, the inhibition is inactive: -3.5%.

With `CN(C)c1ccc(C(=O)NCC2(N(C)C)CCCCC2)cc1`, the inhibition is inactive: 0.0049%.

In the case of `CN(C)C1CCCC1OC(=O)C(O)(c1ccccc1)c1ccccc1` (stereo not given), the inhibition is inactive: -4.39%.

Consider `Cc1ccccc1C(=O)NCC1(N2CCCCC2)CCCCC1`, for which the inhibition was inactive: 3.54%.

For the compound `O=C(NCC1(N2CCCCC2)CCCCC1)c1cc(F)c(F)cc1Cl`, the inhibition is inactive: 2.94%.

With `C=CCN1CCN(CCOC(=O)C(O)(c2ccccc2)c2ccccc2)CC1`, the inhibition is inactive: -1.67%.

Turning to `COc1ccc(C(=O)NCC2(N(C)C)CCCCC2)cc1`, the inhibition was inactive: -2.66%.

For `O=C(NCC1(N2CCCCC2)CCCCC1)c1cccc(Br)c1`, the inhibition is inactive: 1.45%.

For `CCN1CCCC(OC(=O)C2(O)c3ccccc3C=Cc3ccccc32)C1` (stereo not given), the inhibition was inactive: 0.691%.

With `Cc1cc(C(=O)NCC2(N3CCCCC3)CCCCC2)ccc1[N+](=O)[O-]`, the inhibition was inactive: 3.19%.
